Laboratory results from patent US20050282745A1, “Non-mammalian GnRH analogs and uses thereof in regulation of fertility and pregnancy” (priority 2001, published 2005).

Test system: chorionic peptidase-1 (C-ase-1)
Assay: C-ase-1 enzyme activity assay, competition for degradation of GnRH

relative potency of inhibition of C-ase-1 degradation of GnRH, compared to GnRH (Example V): 0.6
potency as competitor compared with salmon or chicken II GnRHs (Example VII): two-fold more potent
potency as competitor for GnRH degradation by C-ase-1 compared with GnRH (Example VII): three-fold less potent
Structure (SMILES): CC(C)C[C@H](NC(=O)CNC(=O)[C@H](Cc1ccc(O)cc1)NC(=O)[C@H](CO)NC(=O)[C@H](Cc1c[nH]c2ccccc12)NC(=O)[C@H](Cc1c[nH]cn1)NC(=O)[C@@H]1CCC(=O)N1)C(=O)N[C@@H](CCC(N)=O)C(=O)N1CCC[C@H]1C(=O)NCC(N)=O [chicken I GnRH]
